Tested on: WFA-induced PD-L1 upregulation in NSCLC cells
Assay: Pharmacologic inhibitors added to WFA, PD-L1 by flow cytometry
Type: cell-based, mouse (LLC), human (H1650
Conditions: WFA + inhibitor, 24 h; STATTIC: LLC, H1650; PX-478: LLC; brusatol: LLC, H1650, A549

## N[C@@H](Cc1ccc([N+]([O-])(CCCl)CCCl)cc1)C(=O)O
  effect on WFA-induced PD-L1 upregulation: neither STATTIC nor PX-478 were able to reverse

From patent US20240293430A1, “WITHAFERIN A AND IMMUNE CHECKPOINT BLOCKER COMBINATION THERAPIES” (University of South Florida, priority 2023, published 2024)
